# Target: Amine oxidase [flavin-containing] A (Homo sapiens, UniProt P21397)
# Sequences of proteins named here, by UniProt entry; tags and fusion partners are left off.
# UniProt P21397, whole entry: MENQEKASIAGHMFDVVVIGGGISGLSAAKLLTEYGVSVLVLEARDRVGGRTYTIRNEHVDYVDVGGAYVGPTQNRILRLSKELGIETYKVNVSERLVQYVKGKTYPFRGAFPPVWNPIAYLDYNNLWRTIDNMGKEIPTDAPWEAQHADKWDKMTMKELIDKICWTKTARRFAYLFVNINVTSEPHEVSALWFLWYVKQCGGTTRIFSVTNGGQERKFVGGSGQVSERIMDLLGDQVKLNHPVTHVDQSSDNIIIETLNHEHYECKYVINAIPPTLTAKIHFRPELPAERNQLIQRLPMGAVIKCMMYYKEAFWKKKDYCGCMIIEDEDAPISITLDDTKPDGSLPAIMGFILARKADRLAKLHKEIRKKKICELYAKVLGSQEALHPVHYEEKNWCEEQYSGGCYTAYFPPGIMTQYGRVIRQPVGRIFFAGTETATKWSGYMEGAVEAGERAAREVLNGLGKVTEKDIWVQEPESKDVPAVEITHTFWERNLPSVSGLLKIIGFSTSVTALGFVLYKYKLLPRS
# Assay: Inhibition of recombinant human MAO-A expressed in baculovirus infected BTI insect cells
compound,measurement,value
NNCCc1ccccc1 [PHENELZINE],IC50,1.5 µM

# — ChEMBL document CHEMBL5325495, “Synthesis and anti-cancer potential of potent peripheral MAOA inhibitors designed to limit blood:brain penetration” (Bioorg Med Chem, 2023)
